# Measured values from PubChem BioAssay AID1346378 (National Center for Advancing Translational Sciences (NCATS), 2018).
# Amino acid sequences for entries named in this document (tags omitted).
# UniProt Q9BTU6, whole entry: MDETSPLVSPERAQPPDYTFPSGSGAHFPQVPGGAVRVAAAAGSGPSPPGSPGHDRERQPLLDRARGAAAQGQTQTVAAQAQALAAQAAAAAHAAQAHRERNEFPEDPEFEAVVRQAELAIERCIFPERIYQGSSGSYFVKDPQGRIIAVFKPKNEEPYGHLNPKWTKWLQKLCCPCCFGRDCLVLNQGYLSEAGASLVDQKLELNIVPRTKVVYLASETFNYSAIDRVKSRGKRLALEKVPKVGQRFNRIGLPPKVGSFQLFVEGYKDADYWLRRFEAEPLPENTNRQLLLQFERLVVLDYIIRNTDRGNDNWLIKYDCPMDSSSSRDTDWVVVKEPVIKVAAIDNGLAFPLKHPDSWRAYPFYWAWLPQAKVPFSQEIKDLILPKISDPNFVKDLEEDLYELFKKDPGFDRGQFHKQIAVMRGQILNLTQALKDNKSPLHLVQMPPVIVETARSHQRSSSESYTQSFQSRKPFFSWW
# “And” between values parts separate entries of the source, which are not always exact repeats. Identical values can stand only once. This is a selection; strong and weak results do not stand in their true shares. Some results for these compounds are left out of this collection, so the calls shown say nothing about other tests. The source made the active and inactive calls. Cut-off read from the data, not from the text of the source: active = activity change below about -50%; inconclusive = mostly about -30% to -49%; inactive = weaker than that.
# Target: Phosphatidylinositol 4-kinase type 2-alpha (Homo sapiens) (UniProt Q9BTU6)
# Test: qHTS for small molecular inhibitors of PI4K2A;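 note: -100% = wells without enzyme as full effect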
# Details: purified PI4K2A, ADP-Glo luminescence, 1 h; at 76.9 µM; stronger effect = lower value
# From the text: The phosphatidylinositol 4-phosphate (PI4P) is emerging as a key regulator of lipid transfer in ER-membrane contact sites. The four different phosphatidylinositol 4-kinase (PI4K) enzymes generate PI4P in different membrane compartments supporting distinct cellular processes many of which are crucial for the maintenance of cellular integrity but also hijacked by intracellular pathogens. The goal of this screening project is to search for small molecular inhibitors of PI4K2A based on a high throughput screening strategy.The ADP-Glo assay was used as a starting point to develop a miniaturized version for HTS applications. To implement the HTS screen, the PI4K ADP-Glotrade mark Kinase assay (Promega, V9102) was miniaturized for the 1536-well format used at NCGC.
# For the robotic screening, the ADP-Glo assay using the ADP-Glotrade mark Kinase Assay kit from Promega was miniaturized and optimized on 1536-well white solid bottom plates (Greiner Bio-one). The substrate, 1.2 mM PI, prepared in the assay buffer (40mM Tris pH7.5, 20mM MgCl2, 1mM EGTA, 0.4% Triton X-100, 0.5mM DTT, 0.5mg/ml BSA) and PI4K2A enzyme, diluted also in the assay buffer to 4ug/mL, were dispensed onto the plates in equal volumes (1microl/well), pinned with 23 nL/well tested compounds or control followed by dispensation of 1microl/well 300microM ATP. The plates were incubated for one hour. Then, 2 µL/well of ADP-Glo reagent was added and incubated for 40 minutes. Next, 4microL/well of Kinase Detection Buffer was added to the plates and incubated for additional 40 minutes. All incubation steps were performed at ambient temperature. The resulting luminescence signal was measured on Viewlux plate reader (PerkinElmer). Adenosine, a partial non-specific inhibitor, was used as a positive control at 100microM final concentration to assess the assay's quality and plate-to-plate reproducibility. We also used "no enzyme" control to gauge the assay's maximal potential inhibition (IC100).
row,Compound,"activity change, negative = inhibition"
1,COc1cccc(C(=O)NCC2(N3CCCCC3)CCCCC2)c1,inactive: -1.46%
2,COc1ccc(Cl)cc1C(=O)NCC1(N(C)C)CCCCC1,inactive: 7.52%
3,COc1ccc(C(=O)NCC2(N(C)C)CCCCC2)cc1Cl,inactive: 0.835%
4,O=C(NCC1(N2CCCCC2)CCCCC1)c1cccc(Cl)c1,inactive: 6.55%
5,CN(C)C1(CNC(=O)c2ccc(Br)cc2)CCCCC1,inactive: -8.89%
6,COc1cc(C(=O)NCC2(N(C)C)CCCCC2)c([N+](=O)[O-])cc1OC,inactive: 4.68%
7,C=C(C)C#CC(O)(C(=O)OC1CCN(C)CC1)c1ccccc1 (stereo unspecified),inactive: -6.21%
8,Cc1cccc(C(=O)NCC2(N(C)C)CCCCC2)c1,inactive: -1.69%
9,COc1cc(C(=O)NCC2(N(C)C)CCCCC2)cc(OC)c1OC,inactive: 1.94%
10,COc1ccc(Br)c(C(=O)NCC2(N3CCCCC3)CCCCC2)c1,inactive: -1.26%
11,CC(C)Oc1ccc(C(=O)NCC2(N(C)C)CCCCC2)cc1,inactive: 1.12% and inactive: -1.88%
12,O=C(OCCN1CCCC1)C(O)(c1ccccc1)c1ccccc1,inactive: 3.65%
13,CN(C)c1cccc(C(=O)NCC2(N(C)C)CCCCC2)c1,inactive: 5.29%
14,COc1cccc(C(=O)NCC2(N3CCOCC3)CCCCC2)c1,inactive: -5.03%
15,O=C(OC1CN2CCC1CC2)C(CO)(c1ccccc1)c1ccccc1 (stereo unspecified),inactive: -1.26%
16,CC(C)COc1ccc(C(=O)NCC2(N(C)C)CCCCC2)cc1,inactive: -7.02%
17,CCN(CC)CC(C)C(C)OC(=O)C(O)(c1ccccc1)c1ccccc1 (stereo unspecified),inactive: -1.41%
18,CN(C)C1(CNC(=O)c2cccc(Cl)c2)CCCCC1,inactive: -4.89%

row,Compound,"activity change, negative = inhibition"
1,COc1cc(SC)ccc1C(=O)NCC1(N(C)C)CCCCC1,inactive: 0.448%
2,CC(C)N1C(=O)CC2(CCN(CCOC(=O)C(O)(c3ccccc3)c3ccccc3)CC2)C1=O,inactive: -1.37%
3,Cc1ccc(C(=O)NCC2(N3CCCCC3)CCCCC2)cc1,inactive: -0.0953%
4,CN(C)C1(CNC(=O)c2ccccc2F)CCCCC1,inactive: -7.25%
5,O=C(NCC1(N2CCCCC2)CCCCC1)c1cc([N+](=O)[O-])ccc1Cl,inactive: -4.46%
6,CN1[C@@H]2CC[C@H]1CC(OC(=O)C(O)(c1ccccc1)c1ccccc1)C2 (stereo partly specified),inactive: -2.84%
7,C=CCN1CCN(CCOC(=O)C(O)(c2ccccc2)c2ccccc2)CC1,inactive: -3.71%
8,O=C(NCC1(N2CCCCC2)CCCCC1)c1cc(F)c(F)cc1Cl,inactive: 0.612%
9,COc1ccc(C(=O)NCC2(N(C)C)CCCCC2)cc1,inactive: 3.69%
10,CCOc1cccc(C(=O)NCC2(N(C)C)CCCCC2)c1,inactive: -1.7%
11,CCN1CCCC(OC(=O)C2(O)c3ccccc3C=Cc3ccccc32)C1 (stereo unspecified),inactive: -2.5%
12,Cc1cc(C(=O)NCC2(N3CCCCC3)CCCCC2)ccc1[N+](=O)[O-],inactive: 0.705%
13,O=C(NCC1(N2CCCCC2)CCCCC1)c1cccc(Br)c1,inactive: 2.84%
14,Cc1ccccc1C(=O)NCC1(N2CCCCC2)CCCCC1,inactive: -0.502%
15,CN(C)C1(CNC(=O)c2ccccc2[N+](=O)[O-])CCCCC1,inactive: -1.47%
16,CN(C)c1ccc(C(=O)NCC2(N(C)C)CCCCC2)cc1,inactive: 0.567%
17,CN(C)C1CCCC1OC(=O)C(O)(c1ccccc1)c1ccccc1 (stereo unspecified),inactive: -0.134%
18,CCCCOc1ccccc1C(=O)NCC1(N(C)C)CCCCC1,inactive: -13.8%
